From ChEMBL document CHEMBL1130333, “On the mechanism of chorismate mutases: Revisiting structural requirements for catalysis” (Bioorg Med Chem Lett, 1997) come the findings set out here.

The nature of this assay: The compound was tested for inhibition of Bacillus subtilis chorismate mutase (BcCM).

Structures are written as SMILES.

Take `C=C(OC1C=C(C(=O)O)C=CC1O)C(=O)O` (stereo unspecified): the Ki (in general, the equilibrium dissociation constant of an inhibitor or competing ligand from its target) stood at 500 µM.
